# AlphaSeq binding of Ab-95 light chain variants to a spike HR2 peptide

Data: MIT Lincoln Laboratory AlphaSeq set, Engelhart et al. 2022, doi:10.1038/s41597-022-01779-4, as distributed in FLAb.

Target: peptide PDVDLGDISGINAS, taken from heptad repeat 2 (HR2) of SARS-CoV-2 spike.

Ab-95 is the parent antibody, in scFv form: VH, then a 15-residue (Gly4Ser)3 linker, then VL. The heavy chain is unchanged in all variants.
VH: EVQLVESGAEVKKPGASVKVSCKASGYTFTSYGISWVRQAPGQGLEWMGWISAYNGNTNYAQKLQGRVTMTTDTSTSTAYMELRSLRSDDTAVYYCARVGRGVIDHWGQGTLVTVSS
VL: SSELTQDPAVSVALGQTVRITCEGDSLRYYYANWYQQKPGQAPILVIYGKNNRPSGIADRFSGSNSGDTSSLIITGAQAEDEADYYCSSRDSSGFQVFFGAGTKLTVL

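In library AAYL52, one, two or three CDR residues were substituted; doubles and triples were drawn at random. The scFvs were displayed on barcoded MATa yeast, the peptide on MATalpha yeast. Binding brings cells together so that they mate, and sequencing counts the barcode pairs among the diploids. Scores were corrected for input abundance and mapped to Kd with protein pairs of known affinity run in the same pool. Mating was done three times.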

Substitutions are numbered in sequence along the VL above, starting at 1 (not Kabat).
Values are apparent Kd, the geometric mean of the replicates that gave a signal; lower means stronger binding.
"not detected" marks a missing value. The strain was present, yet no cells mated with the target were sequenced in any replicate, which points to weak or no binding.
Background: pairings of library AAYL52 with three empty control strains gave a value in 28% of cases (median 8.2 µM, 5th percentile 800 nM). Values in that range, when seen in few replicates, are hard to tell from nonspecific mating.
Parent in this assay: reference entry 200 nM, copy in this library 180 nM.

apparent Kd	detected	changes
830 nM	3 of 3	S89G G94R
38 nM	3 of 3	D25I Y30S S89K
210 µM	1 of 3	R28V S92W S93N
68 µM	2 of 3	G49V S88E S93E
1.4 µM	3 of 3	E23T L27W F95N
5.7 µM	3 of 3	S26A Y30I Q96D
110 nM	3 of 3	E23T S26T Q96T
30 µM	1 of 3	Y29W N33G V97D
4.1 µM	2 of 3	S26Q S55A S88E
4.4 µM	1 of 3	A32C S89Y R90P
20 µM	2 of 3	N33H G49I D91S
2.2 µM	3 of 3	R90I F95P V97Y
19 µM	1 of 3	P54I V97E
1.1 µM	3 of 3	D25T R28Y F98W
6.5 µM	3 of 3	G49C N51Q Q96F
600 nM	3 of 3	K50T N52H S92A
6.2 µM	3 of 3	G24W Y29A
110 µM	1 of 3	N33M G49H D91N
19 µM	1 of 3	N33Y N52Y S55W
37 µM	2 of 3	D25R A32F N51H
not detected	0 of 3	L27E S88E S89P
65 µM	3 of 3	Y29C N33Y S93V
2.2 µM	3 of 3	L27K D91E S93C
not detected	0 of 3	L27F R90C D91I
2.6 µM	3 of 3	D25K Y30I F95H
10 µM	3 of 3	A32W S89M Q96P
not detected	0 of 3	E23P A32T S93I
830 nM	3 of 3	S26L K50L N52M
1.3 µM	3 of 3	E23S S26T F98S
3.3 µM	1 of 3	G49W S55V R90V
4.5 µM	1 of 3	G49C G94K
4.3 µM	3 of 3	N33A S55W G94R
59 nM	3 of 3	K50E N51S F95Y
640 nM	3 of 3	Y30T Y31V S88G
270 nM	3 of 3	S55C S88Q R90T
9.4 µM	3 of 3	Y29R Y31C R53D
1.1 µM	3 of 3	Y31C D91F
3.8 µM	1 of 3	Y30G R53D S89M
11 µM	1 of 3	N51P N52F S88V
6.7 µM	2 of 3	G24W G49E S93P
not detected	0 of 3	L27C G49Y N52A
860 nM	1 of 3	A32H K50N P54M
37 µM	2 of 3	N33H K50C
20 µM	2 of 3	S26F Y31G G49R
2.1 µM	3 of 3	E23I R28T N52K
not detected	0 of 3	N33D S88I S89E
5.5 µM	3 of 3	N51K D91S
13 µM	2 of 3	S26L S92I V97G
1.4 µM	1 of 3	Y30F R53Q G94Y
200 nM	3 of 3	L27G Y29T Y30Q
7.2 µM	3 of 3	R90P S92T S93P
9.3 µM	3 of 3	Y31V S55R Q96G
8.6 µM	3 of 3	Y29M R53T F95P
29 nM	3 of 3	L27F N33K S92K
450 nM	3 of 3	Y29S P54E R90K
12 µM	1 of 3	E23W S26C R53S
860 nM	3 of 3	R28T P54M S55I
not detected	0 of 3	S26Y N33T S93E
210 nM	3 of 3	R28M Y30D R53G
54 µM	1 of 3	R53P S92Y V97S
2.7 µM	1 of 3	L27D A32C P54R
25 µM	1 of 3	N33I N51V N52S
31 µM	2 of 3	S26I G94K
1.4 µM	3 of 3	N52A P54R S55N
3.5 µM	2 of 3	R28Y G49N V97F
not detected	0 of 3	S26F Y31M A32R
89 nM	3 of 3	N52D R90Q Q96R
9.9 µM	2 of 3	Y31I F98I
2.3 µM	1 of 3	G24C S26K S92C
4.6 µM	2 of 3	P54D D91H Q96L
not detected	0 of 3	Y29W S89N S92I
not detected	0 of 3	E23P Y30D Q96M
2.1 µM	3 of 3	S89M S93Y G94Y
2.8 µM	1 of 3	G49T S88P G94C
1.1 µM	3 of 3	D25V K50T R90K
2.0 µM	3 of 3	E23T S89V V97K
590 nM	3 of 3	S26H Y30R S88H